The target of the assay is Insulin-like growth factor 1 receptor (Homo sapiens, UniProt P08069). As to the kind of experiment: Inhibition of IGF1R.

Amino acid sequences for entries named in this document (tags omitted). Residues count along the entry.
UniProt P08069, 741-1367 limits assumed: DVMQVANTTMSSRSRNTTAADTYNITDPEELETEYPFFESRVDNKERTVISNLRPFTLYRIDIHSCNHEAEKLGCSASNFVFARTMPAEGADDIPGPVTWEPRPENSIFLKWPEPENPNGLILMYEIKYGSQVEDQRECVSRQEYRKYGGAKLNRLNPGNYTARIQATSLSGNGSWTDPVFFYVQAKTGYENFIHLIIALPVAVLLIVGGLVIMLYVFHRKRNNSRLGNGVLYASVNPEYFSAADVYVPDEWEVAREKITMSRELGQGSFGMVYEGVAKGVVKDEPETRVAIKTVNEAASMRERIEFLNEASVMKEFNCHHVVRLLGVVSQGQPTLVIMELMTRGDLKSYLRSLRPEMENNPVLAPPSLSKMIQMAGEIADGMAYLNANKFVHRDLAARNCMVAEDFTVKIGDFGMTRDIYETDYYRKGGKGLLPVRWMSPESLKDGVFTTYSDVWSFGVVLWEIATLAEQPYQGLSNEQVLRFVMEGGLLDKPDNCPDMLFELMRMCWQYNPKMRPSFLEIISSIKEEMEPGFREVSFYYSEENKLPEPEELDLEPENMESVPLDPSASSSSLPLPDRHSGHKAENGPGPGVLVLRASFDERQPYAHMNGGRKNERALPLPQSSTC
UniProt P08069, 31-736 limits assumed: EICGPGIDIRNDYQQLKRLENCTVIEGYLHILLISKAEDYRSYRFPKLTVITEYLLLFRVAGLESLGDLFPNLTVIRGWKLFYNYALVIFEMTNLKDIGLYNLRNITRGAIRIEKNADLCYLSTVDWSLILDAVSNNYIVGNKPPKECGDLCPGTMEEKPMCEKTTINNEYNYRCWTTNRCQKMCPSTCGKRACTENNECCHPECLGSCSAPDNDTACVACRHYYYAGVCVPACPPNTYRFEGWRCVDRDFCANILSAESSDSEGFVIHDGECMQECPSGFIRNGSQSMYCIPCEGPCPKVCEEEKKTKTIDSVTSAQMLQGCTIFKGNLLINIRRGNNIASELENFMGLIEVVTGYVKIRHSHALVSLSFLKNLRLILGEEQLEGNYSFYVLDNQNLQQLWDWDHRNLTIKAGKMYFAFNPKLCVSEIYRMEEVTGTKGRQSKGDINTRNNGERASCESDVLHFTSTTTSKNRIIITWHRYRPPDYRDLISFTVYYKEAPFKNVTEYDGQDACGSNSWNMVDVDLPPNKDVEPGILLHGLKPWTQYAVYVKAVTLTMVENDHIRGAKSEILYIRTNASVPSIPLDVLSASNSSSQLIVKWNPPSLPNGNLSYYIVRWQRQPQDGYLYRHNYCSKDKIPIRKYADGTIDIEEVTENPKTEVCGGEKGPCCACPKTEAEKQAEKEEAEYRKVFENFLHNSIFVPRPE

Structures are written as SMILES. pIC50: −log10 of the molar value.

In ChEMBL document CHEMBL1221304, “Proline isosteres in a series of 2,4-disubstituted pyrrolo[1,2-f][1,2,4]triazine inhibitors of IGF-1R kinase and IR kinase” (Bioorg Med Chem Lett, 2010) one finds IC50 data, which are given here for 1 compound.

As usually defined, the pIC50 is −log10 of the IC50, conventionally taken in molar units. The compound `O=C(NCc1nc(Nc2cc(C3CC3)n[nH]2)c2cccn2n1)c1ccc(F)nc1` gave a pIC50 of 8.28.
